The record followed here is article PMC10608500 (Marine Drugs, 2023).

The assay has as its system nitric oxide (NO) secretion in LPS-stimulated RAW264.7 cells. As to the kind of experiment: NO secretion (Griess assay) in LPS-stimulated RAW264.7 cells. The note with it: 2 h pre-treatment then LPS 500 ng/mL for 22 h, OD 550 nm, mean of duplicate. (In general: Nitrite, measured by Griess reagent, commonly stands in for NO production.)

Take Xinghamide A: the NO secretion reads like this: (100 μM compound) 12.6 µM; (200 μM compound) 2.5 µM.
